Experimental findings from PubChem BioAssay AID1645855 (Buhrlage Lab, Dana-Farber Cancer Institute and Novartis …, 2021) are described below.

Chains of the proteins cited; added tags and fusions are not shown.
UniProt A8MUK1, whole entry: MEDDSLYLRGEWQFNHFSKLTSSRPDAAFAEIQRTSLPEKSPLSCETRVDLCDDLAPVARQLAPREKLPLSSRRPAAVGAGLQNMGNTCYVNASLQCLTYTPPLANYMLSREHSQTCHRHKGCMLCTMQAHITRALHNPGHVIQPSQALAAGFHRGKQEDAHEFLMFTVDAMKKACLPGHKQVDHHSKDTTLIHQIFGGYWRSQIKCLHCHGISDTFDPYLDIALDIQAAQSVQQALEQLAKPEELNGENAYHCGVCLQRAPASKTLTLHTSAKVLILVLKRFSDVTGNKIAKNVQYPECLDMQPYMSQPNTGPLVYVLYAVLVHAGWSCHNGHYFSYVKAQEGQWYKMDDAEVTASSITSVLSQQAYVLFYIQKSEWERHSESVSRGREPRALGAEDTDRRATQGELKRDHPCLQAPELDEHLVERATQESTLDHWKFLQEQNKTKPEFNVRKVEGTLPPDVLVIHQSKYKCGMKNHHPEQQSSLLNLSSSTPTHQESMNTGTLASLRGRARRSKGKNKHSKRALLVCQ

Structures are written as SMILES. The list shows a part of the results, in another mix than the full data. The source made the active and inactive calls. Cut-off read from the data, not from the text of the source: active = inhibition above about 30%; inactive = the rest.

For the test, the target named is Ubiquitin carboxyl-terminal hydrolase 17-like protein 5 (Homo sapiens) (UniProt A8MUK1). The experiment in a line: inhibitors of human USP17 deubiquitinase (AID 1645855). To be noted: purified USP17, Ub-rhodamine cleavage fluorescence, 3 h; at 50 µM; stronger effect = higher value.
Consider `CN(C)c1ccc(C(=O)NCC2(N3CCCCC3)CCCCC2)cc1`, for which the inhibition is inactive: -0.484%. As for `N#Cc1ccc(C(=O)NCC2(N3CCCCC3)CCCCC2)cc1`, the figure is inactive: -38.7%; as for `Cc1cc(C(=O)NCC2(N3CCOCC3)CCCCC2)c2ccccc2n1`, inactive: 12.9%; as for `Cc1ccccc1C(=O)NCC1(N2CCOCC2)CCCCC1`, inactive: -4.62%.

On to `O=C(NCC1(N2CCCCC2)CCCCC1)c1ccc2ncsc2c1`, for which the inhibition was inactive: -1.39%. As for `O=C(NCC1(N2CCOCC2)CCCCC1)c1ccccc1Cl`, the figure is inactive: -25.3%; as for `O=C(NCC1(N2CCCCC2)CCCCC1)c1ccc(F)cc1`, inactive: -51.1%; as for `CC1CN(CCc2ccccc2)CCC1=O` (stereo not drawn), inactive: -3.09%.

Usually inhibition stands for the change of the read-out against control, counted positive when it falls.
